# Positions count from the first letter of the chain named.
# T1: minor histocompatibility antigen HA-2, immunogenic 'V' variant (encoded by the Myosin 1G (MYO1G) gene) … (human)
# T1 peptide: YIGEVLVSV
# B1: TCR G (TCR, V domains shown)
# Valpha: AQTVTQSQPEMSVQEAETVTLSCTYDTSESDYYLFWYKQPPSRQMILVIRQEAYKQQNATENRFSVNFQKAAKSFSLKISDSQLGDAAMYFCAYRRFYNTDKLIFGTGTRLQVFP
# Vbeta: DGGITQSPKYLFRKEGQNVTLSCEQNLNHDAMYWYRQDPGQGLRLIYYSQIVNDFQKGDIAEGYSVSREKKESFPLTVTSAQKNPTAFYLCASRSAGYAEAFFGQGTRLTVV
# B2: TCR C (TCR, V domains shown)
# Valpha: EDQVTQSPEALRLQEGESSSLNCSYTVSGLRGLFWYRQDPGKGPEFLFTLYSAGEEKEKERLKATLTKKESFLHITAPKPEDSATYLCAVQAWDYGGSQGNLIFGKGTKLSVKP
# Vbeta: NAGVMQNPRHLVRRRGQEARLRCSPMKGHSHVYWYRQLPEEGLKFMVYLQKENIIDESGMPKERFSAEFPKEGPSILRIQQVVRGDSAAYFCASSTREGTDTQYFGPGTRLTVL
# B3: TCR E (TCR, V domains shown)
# Valpha: GQQVMQIPQYQHVQEGEDFTTYCNSSTTLSNIQWYKQRPGGHPVFLIQLVKSGEVKKQKRLTFQFGEAKKNSSLHITATQTTDVGTYFCAADPRDNYGQNFVFGPGTRLSVLP
# Vbeta: DTGVSQNPRHKITKRGQNVTFRCDPISEHNRLYWYRQTLGQGPEFLTYFQNEAQLEKSRLLSDRFSAERPKGSFSTLEIQRTEQGDSAMYLCASSPLAGGETQYFGPGTRLLVL
# B4: TCR B (TCR, V domains shown)
# Valpha: KQEVTQIPAALSVPEGENLVLNCSFTDSAIYNLQWFRQDPGKGLTSLLLIQSSQREQTSGRLNASLDKSSGRSTLYIAASQPGDSATYLCAVRQGYGGSQGNLIFGKGTKLSVKP
# Vbeta: GAGVSQSPRYKVAKRGQDVALRCDPISGHVSLFWYQQALGQGPEFLTYFQNEAQLDKSGLPSDRFFAERPEGSVSTLKIQRTQQEDSAVYLCASSLIQGTNSPLHFGNGTRLTVT
# B5: TCR M (TCR, V domains shown)
# Valpha: B4 Valpha with Q94S
# Vbeta: GAGVSQSPRYKVAKRGQDVALRCDPISGHVSLFWYQQALGQGPEFLTYFQNEAQLDKSGLPSDRFFAERPEGSVSTLKIQRTQQEDSAVYLCASSLAGQETQYFGPGTRLLVL
# B6: TCR H (TCR, V domains shown)
# Valpha: B4 Valpha with Q94S
# Vbeta: GAGVSQSPRYKVAKRGQDVALRCDPISGHVSLFWYQQALGQGPEFLTYFQNEAQLDKSGLPSDRFFAERPEGSVSTLKIQRTQQEDSAVYLCASSLAGGSLQETQYFGPGTRLLVL
# B7: TCR A (TCR, V domains shown)
# Valpha: KQEVTQIPAALSVPEGENLVLNCSFTDSAIYNLQWFRQDPGKGLTSLLLIQSSQREQTSGRLNASLDKSSGRSTLYIAASQPGDSATYLCAVRPKNYGGSQGNLIFGKGTKLSVKP
# Vbeta: GAGVSQSPRYKVAKRGQDVALRCDPISGHVSLFWYQQALGQGPEFLTYFQNEAQLDKSGLPSDRFFAERPEGSVSTLKIQRTQQEDSAVYLCASSFPGLASYEQYFGPGTRLTVT
# B8: TCR O (TCR, V domains shown)
# Valpha: B7 Valpha
# Vbeta: GAGVSQSPRYKVAKRGQDVALRCDPISGHVSLFWYQQALGQGPEFLTYFQNEAQLDKSGLPSDRFFAERPEGSVSTLKIQRTQQEDSAVYLCASSLAERPGTQYFGPGTRLTVL
# B9: TCR L (TCR, V domains shown)
# Valpha: B7 Valpha with P94T, N96D
# Vbeta: B7 Vbeta with A100V
# B10: TCR F (TCR, V domains shown)
# Valpha: B7 Valpha with P94T, N96D
# Vbeta: GAGVSQSPRYKVAKRGQDVALRCDPISGHVSLFWYQQALGQGPEFLTYFQNEAQLDKSGLPSDRFFAERPEGSVSTLKIQRTQQEDSAVYLCASSLALPAADSYEQYFGPGTRLTVT
# B11: TCR D (TCR, V domains shown)
# Valpha: B4 Valpha with Q94R
# Vbeta: B7 Vbeta with F96L, P97T, G98A, L99G, S101Y, Y102N, Y105F, T115L
# B12: TCR J (TCR, V domains shown)
# Valpha: B7 Valpha with K95G
# Vbeta: GAGVSQSPRYKVAKRGQDVALRCDPISGHVSLFWYQQALGQGPEFLTYFQNEAQLDKSGLPSDRFFAERPEGSVSTLKIQRTQQEDSAVYLCASSPPGGLGEKLFFGSGTQLSVL
# B13: TCR P (TCR, V domains shown)
# Valpha: B7 Valpha
# Vbeta: B4 Vbeta
# B14: TCR K (TCR, V domains shown)
# Valpha: B7 Valpha with K95V
# Vbeta: B5 Vbeta with S95R, L96S, A97P, G98R, Q99L
# B15: TCR N (TCR, V domains shown)
# Valpha: B7 Valpha with K95G
# Vbeta: B4 Vbeta
# Biological target: T1, minor histocompatibility antigen HA-2, …
# Test: CD69 upregulation, flow cytometry; Jurkat J.RT3-T3.5-CD8 with the TCR, 1:1 with A*02:01 LCL HG0017 cells and increasing HA-2 V peptide, 16-24 h; XLfit; full-length, on cells
row,EC50 of peptide,Binder
1,21.6 nM,B1
2,15.7 nM,B2

# Biological target: T1, minor histocompatibility antigen HA-2, …
# Test: multimer staining
row,binding result,Binder
1,recognises,B3
2,recognises,B4
3,recognises,B5
4,recognises,B6
5,recognises,B7
6,recognises,B8
7,recognises,B9
8,recognises,B10
9,recognises,B11
10,recognises,B12
11,recognises,B13
12,recognises,B14
13,recognises,B15

# Biological target: HA-2 V peptide (…) presented by HLA-A*02:01 on antigen presenting cells (human)
# Test: cell-based or functional assay
row,"EC50 for CD69 expression, LCL HG0017 cells",Binder
1,21.6 nM,B1
2,15.7 nM,B2

# Source: patent US20260199470A1 (published 2026)
